Ab-14 light chain CDR variants: yeast mating affinities

Source: Li et al. 2023 (doi:10.1038/s41467-023-39022-2), MIT Lincoln Laboratory and A-Alpha Bio; data file from the FLAb repository.

The target is the same throughout: PDVDLGDISGINAS, from the HR2 region of SARS-CoV-2 spike.

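Phage display of a naive human antibody library on the peptide gave the parent. This is the validation round: designs drawn from the data on random variants, tested in the same kind of assay. Group labels follow the data file (Ctrl: baseline library sampled from a position-specific scoring matrix, with some repeated check sequences; Rand: our label for a block that the file lists under HC and that is probably the random mutants of the ten best first-round binders; En: ensemble of fine-tuned language models; GP: Gaussian process model; HC: hill climbing; Gen: genetic algorithm; Gibbs: Gibbs sampling; a sequence that several methods proposed may carry one label only). Affinity was read by AlphaSeq, a pooled yeast mating assay with surface-displayed partners. Mating (16 h, 30 °C) was followed by selection of diploids and sequencing of their barcodes. The ratio of observed to expected reads was calibrated, replicate by replicate, on BCL2-family standards whose Kd was known from biolayer interferometry. The assay was run in six technical replicates.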

Parent: Ab-14, a human scFv built as VH, the linker GGGGSGGGGSGGGGS, VL. Only the CDRs of the light chain vary.
VH: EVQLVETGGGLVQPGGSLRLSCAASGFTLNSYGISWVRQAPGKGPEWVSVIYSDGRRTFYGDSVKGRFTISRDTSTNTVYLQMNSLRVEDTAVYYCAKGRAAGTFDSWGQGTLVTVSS
VL: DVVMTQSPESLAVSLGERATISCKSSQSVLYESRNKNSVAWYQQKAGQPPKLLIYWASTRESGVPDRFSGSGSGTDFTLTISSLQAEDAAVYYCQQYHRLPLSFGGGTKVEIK

Variants are written as CDR1, CDR2 and CDR3 of the light chain (limits as in the source). Parent: KSSQSVLYESRNKNSVA, WASTRES, QQYHRLPLS. The read-out is the apparent dissociation constant on a log10 scale (nM): the lower, the stronger. The mean shown is taken over the replicates in which the pair was detected. Where no diploid with the target was found in any replicate, the entry reads "not detected": below detection, most likely a poor binder, though not proof of it.

log10 Kd (nM), mean	seen in	signal with controls	CDR-L1	CDR-L2	CDR-L3	group
1.57	6/6	2/18	MISESVMYESRNRNSVA	DNSTRER	QCYDRLPLS	En_HC
0.22	6/6	0/18	TIGPMLMTESHNRNNVA	GMQTRER	QQYHRLPLS	En_HC
0.14	6/6	1/18	SIYDATRMESRNKNPIA	DVSNRPS	QQYDRLPLS	En_HC
0.24	6/6	1/18	ALMQSVLYESRNKNSVA	HASLRED	QQYHRLPLS	GP_HC
1.33	6/6	0/18	MMSQVRGSGTRQRNNVA	QTSTREP	QQYDRLPLI	En_Gen
-0.31	6/6	0/18	KMSQSVPYEERNLNNVA	DGSTRES	QQYHRLPLS	GP_Gibbs
1.68	2/6	0/18	MVSQLMLWGLHAKNSIA	EAQTRHN	QQYDRLPLF	En_Gen
-0.04	6/6	1/18	QLAVNRLMEYTMNNAIA	GKTLRVD	QQYARLPLS	En_Gibbs
0.93	6/6	3/18	KITATMRFEQKIKNNIA	EVSTRSK	QQYVRLPLA	En_Gen
0.21	6/6	1/18	KSSQSGLYESRNKNSVA	SASTRES	QQYHRLPLS	Ctrl
-0.22	6/6	3/18	KLSQSWEYESRNKNSVA	NASTREV	QQYHRLPLS	GP_Gen
-0.10	6/6	0/18	RSSQSWLYESRNKNSVA	GASTRES	QQYHRLPLS	GP_HC
0.84	6/6	0/18	KSSQSVLYESRNKNSVA	NASLRES	QQYHRLPLS	Ctrl
0.91	6/6	0/18	KQSGQQLYSSRNKNQVA	DASTRES	QQYHRLPLS	GP_Gibbs
-0.05	6/6	0/18	KLQQSWGYESRNKNSVA	NASTRES	QQYHRLPLS	GP_Gen
-0.12	6/6	1/18	KLSQEDWYQSRMDNSVA	DASTRES	QQYHRLPLS	GP_Gibbs
1.55	6/6	0/18	KLSMTIEMELKNRNSVA	ELVTRMS	QQYNRLPLS	En_Gen
2.67	2/6	1/18	KSSQSFLYESMNKNSVA	WASTRES	QQYVRLPLS	Ctrl
-0.09	6/6	1/18	KLSQSWLYESRNKNSVA	NASTREW	QQYHRLPLS	GP_Gen
1.03	6/6	1/18	MISDLMKYGSRNKNPIA	NASTREY	QQYHRLPLE	En_HC
1.39	6/6	3/18	KLRLSTHIESFNKNNVA	EMTTRES	QSYDRLPLS	En_HC
0.15	6/6	1/18	KLSQSKLYESRNKNNVA	HASTRES	QQYHRLPLS	GP_Gen
-0.08	6/6	2/18	KVMQSVPYESRNKNSVA	EASTRES	QQYHRLPLS	GP_Gen
1.22	6/6	0/18	KSLQSVLYESRNKNSVA	HASTRED	QQYHSLPLS	Rand
0.24	6/6	1/18	KQSISYLGESRNKNSVA	EASTRES	QQYHRLPLS	GP_HC
0.58	6/6	1/18	KLHQSWLYLSRNHNSVA	NASQRCS	QQYHRLPLS	GP_Gibbs
1.64	4/6	0/18	KSSQSVLYESRNKNSVA	WASTRES	QQYNRLPLS	Ctrl
not detected	0/6	1/18	KSSQSVTYESRNKNSVA	WASTRES	QQYHRVPLS	Ctrl
0.24	6/6	1/18	KLQQSMLYESRNKNSVA	NASLRES	QQYHRLPLS	GP_Gibbs
2.43	3/6	0/18	KLSQSVDSESRNKNSVA	WAITREI	QQYHRLPLS	Ctrl
not detected	0/6	0/18	KSSQTVLYESRNKNSVA	WASQRES	QQYQRLPLS	Ctrl
0.83	6/6	0/18	KSGQGVLYESRNKNSVA	GRSTRES	QQYHRLPLS	Rand
0.58	6/6	0/18	KVMQSMWYESRWKNSVA	NASQRES	QQYHRLPLS	GP_Gibbs
0.62	6/6	0/18	IISQSVLGEYHNKNSVA	QTSERGS	QQYDRLPLS	En_HC
-0.44	6/6	1/18	KLEQSVLYESRNKNNVA	NASQRES	QQYHRLPLS	GP_Gen
1.29	6/6	2/18	MMSQLFEGLSTSKNPVA	QVSTREE	QQYHRLPLS	En_HC
2.47	2/6	0/18	MMSQVTGLGQRQRNNVA	QTSEREP	QQYDRLPLI	En_Gen
0.32	6/6	2/18	HLNLEYMQMMKDHNSIA	ETEHKTP	QQYFRLPIS	En_Gibbs
1.02	5/6	0/18	KLSQSVLYESRNKNSVA	WASKRES	QQYHRLPLS	Ctrl
0.11	6/6	1/18	KFSQSVAYESRQKNSVA	NASTRES	QQYHRLPLS	GP_HC
1.83	6/6	0/18	HITMGMYVKGRHHSSIA	QAETRAK	QQYDRLPLM	En_Gen
0.38	6/6	0/18	KCDQWVFYGDRNKNSVA	NASTREQ	QQYHRLPLS	GP_Gibbs
0.82	5/6	0/18	KLSMLHDYESRNKNSVA	QASTRES	QDYHRLPLS	GP_Gibbs
1.58	6/6	0/18	HMSPSVLHESPNKNSVA	AASTRES	QQDHRLPLS	Ctrl
-0.59	6/6	1/18	KSSQSWLYESRNKNSVA	GASTREE	QQYHRLPLS	GP_HC
1.78	4/6	0/18	KSSQSVLTESRNKNSVA	MESTRES	QQYHRLPLS	Ctrl
0.25	6/6	1/18	KSKQSVLYESRNFNSVA	NASTRES	QDYHRLPFS	Ctrl
-0.05	6/6	0/18	KSSQSSLDESRNKNSVA	MASTRES	QQYSRLPLS	Ctrl
2.39	5/6	1/18	MMTVGDDMNTGHQNSVA	HAEIKEL	QQYFSLPLI	En_Gibbs
-0.07	6/6	0/18	KSQQGALYESRNKNSVA	GASTRES	QQYHRLPLS	GP_HC
1.41	6/6	1/18	VFGGQWGLGTTQNSSVA	NVSETML	QQYNRLPLM	En_Gibbs
2.32	5/6	2/18	KGSQSELYESRNKNSVA	WASCRES	QQYHRLPLS	Ctrl
1.12	6/6	3/18	MLTMFANENQGWSNNIA	DTNNLNT	QQYQRLPFM	En_Gibbs
1.08	6/6	1/18	KISMLVNFLGKNKNSVA	QMSTRES	QQYDRLPLS	En_HC
1.50	6/6	0/18	MLSQMTGLGMKASNSVA	QASMRFD	QQYFRLPLI	En_Gen
0.28	6/6	2/18	KISTQIPEFEMDDNAIA	EATLRET	QHYQRLPLS	En_Gibbs
not detected	0/6	0/18	KSSQSVLYSSRNKNSVA	TASTRES	QQYHRLPLS	Ctrl
not detected	0/6	0/18	DSSQSVLYESGNTNSVA	WASTRES	CQYHRLPLS	Ctrl
-0.37	6/6	0/18	KLMNSMLYESRNVNSVA	NASYRES	QQYHRLPLS	GP_Gibbs

9 of these entries, quoted again:

| CDR-L1 | CDR-L2 | CDR-L3 | group | log10 Kd (nM), mean | seen in | signal with controls |
|---|---|---|---|---|---|---|
| KLHQSWLYLSRNHNSVA | NASQRCS | QQYHRLPLS | GP_Gibbs | 0.58 | 6/6 | 1/18 |
| MISDLMKYGSRNKNPIA | NASTREY | QQYHRLPLE | En_HC | 1.03 | 6/6 | 1/18 |
| MVSQLMLWGLHAKNSIA | EAQTRHN | QQYDRLPLF | En_Gen | 1.68 | 2/6 | 0/18 |
| ALMQSVLYESRNKNSVA | HASLRED | QQYHRLPLS | GP_HC | 0.24 | 6/6 | 1/18 |
| MMSQLFEGLSTSKNPVA | QVSTREE | QQYHRLPLS | En_HC | 1.29 | 6/6 | 2/18 |
| KVMQSVPYESRNKNSVA | EASTRES | QQYHRLPLS | GP_Gen | -0.08 | 6/6 | 2/18 |
| KQSGQQLYSSRNKNQVA | DASTRES | QQYHRLPLS | GP_Gibbs | 0.91 | 6/6 | 0/18 |
| KLSQSVDSESRNKNSVA | WAITREI | QQYHRLPLS | Ctrl | 2.43 | 3/6 | 0/18 |
| KLQQSMLYESRNKNSVA | NASLRES | QQYHRLPLS | GP_Gibbs | 0.24 | 6/6 | 1/18 |

Nonspecific signal, from three strains lacking the peptide, appeared in 4% of pairings of all light chain designs, centred on 2.64 (5% of these signals below 1.59); values are not corrected for it. For each scFv, signals with the empty controls are counted beside the result. In the paper, a design with two or fewer of six values counts as a poor binder. The parent sequence was in this pool as ten entries: three were never detected, three once, and four in most replicates, with averages from 0.34 to 2.37. Values of this round are not directly comparable with the first-round values of the same sequences.